# Assay results: patent publication US11129820B2, “Ferroportin-inhibitor salts” (Vifor (International) AG, priority 2017, dated 2021)
# Tests used:
# [1] = tested on: beta2-microglobulin deficient (b2m−/−) mice; assay: Prevention of iron overload in beta2-microglobulin deficient mice; assay type: in vivo, mouse; conditions: 14 days
# Description: In addition, feeding 3 week old b2m−/− mice a diet with low iron content (LID) immediately after weaning prevents liver iron loading by age of 6-7 weeks. The efficacy of the Fpn inhibitors to prevent liver iron accumulation in b2m−/− mice is investigated. Three weeks old b2−/− mice fed LID are dosed with either Fpn inhibitor or vehicle (methylcellulose; 10 ml/kg). Mice have access to drinking water supplemented with 1 mM ^58Fe(II)-sulfate and 10 mM ascorbic acid. Dosing of Fpn inhibitor or vehicle followed by exposure to iron-containing water is repeated for 14 days. Mice are euthanized and the liver and spleen iron contents are analyzed by ICP-OES (all iron isotopes) and liver tissue is also analyzed for ^58Fe concentration (ICP-MS).
# Livers and spleens are collected after 14 day treatment (p.o.; b.i.d) of beta2-microglobulin deficient mice with the indicated doses of Fpn inhibitors. Total liver and spleen tissue iron concentrations are measured using ICP-OES and ^58Fe liver concentrations are determined with ICP-MS. Relative changes (%) of tissue iron levels are calculated by normalizing the difference between the averages of tissue iron values of animals dosed with the Fpn inhibitors and those of vehicle-treated animals with the average of vehicle controls.
# Hbb th3/+ mice = assay: Mouse model of β-thalassemia intermedia (Hbb th3/+ mice); assay type: in vivo; conditions: 60 mg/kg twice daily for 20-46 days, % change to vehicle
# Source text: Based on these findings and published studies (Schmidt P J, et al, Blood 2013, Guo S, et al, JCI, 2013 and Casu C. et al, Blood, 2016) Fpn inhibitors are examined with respect to its capacity to prevent iron loading and improve erythropoiesis in thalassemia intermedia by restricting iron absorption and reutilization from senescent erythrocytes. The efficacy of Fpn inhibitors is investigated using a mouse model of transfusion-independent β-thalassemia. Mice with heterozygous deletion of β 1 and β 2 globin genes (called Hbb th3/+ mice) develop transfusion-independent anemia, ineffective erythropoiesis, splenomegaly and secondary iron overload in spleen, liver and kidneys. […]
# The change of hemoglobin levels in compound-dosed compared to vehicle-treated group reaches 19-22 g/L by the study end. Additional hematologic parameters are measured in terminal blood using automated blood cell analyzer. […]
# Additionally, reactive oxygen species (ROS) are detected in bone marrow cells using a fluorescent indicator, CM-H2DCFDA (Thermo Fisher Scientific, Cat. C6827).
# Table 10 Efficacy of Ferroportin inhibitors in a mouse model of thalassemia intermedia (Hbb th3/+ mice). […] Data are expressed as difference to the vehicle control group for hemoglobin and as % change to the vehicle control group for all other parameter shown
# [2] = female ♀, 60 mg/kg p.o. b.i.d., 60 mg/kg
# [3] = male ♂, 60 mg/kg p.o. b.i.d., 60 mg/kg
smiles,measurement,setting,value
O=C(NCc1ncccc1F)c1csc(CCNCc2nc3ccccc3[nH]2)n1 [Example Compound No. 40],Total Liver Iron Reduction (%),[1]; [2],67* % and 66%
same,^58Fe Liver Iron Reduction (%),[1]; [2],80* % and 67%
same,Total Spleen Iron Increase (%),"[1]; male ♂, 20 mg/kg p.o. b.i.d.",25%
same,Total Liver Iron Reduction (%),[1]; [3],69*** % and 85** %
same,Total Spleen Iron Increase (%),[1]; [3],24% and 36%
same,^58Fe Liver Iron Reduction (%),[1]; [3],81*** % and 95** %
same,Decrease in leukocyte counts by 20/60 mg/kg compound,Hbb th3/+ mice,36%
same,Decrease in serum erythropoietin by 20/60 mg/kg compound,Hbb th3/+ mice,37%

# “And” between values parts separate entries of the source, which are not always exact repeats. Equal entries are not always repeated. Marks after values point to notes of the source that are not given here.
